This passage reports specific activity results from article PMC4949121 (Inorganic chemistry, 2016).

The series is described as follows: 64Cu radiolabeling of cetuximab conjugates, specific activity. Conditions: ~2 chelators per antibody; 0.1 M ammonium acetate pH 6.8, 37 °C, 1 h; radio-iTLC.

For the substance “^64Cu-NE3TA-cetuximab: 64Cu-labeled cetuximab (anti-EGFR monoclonal antibody) modified with ~2 NE3TA per antibody”, the specific activity was 9–10 μCi/μg.
Regarding “^64Cu-NOTA-cetuximab: 64Cu-labeled cetuximab conjugate prepared from cetuximab and SCN-Bn-NOTA [reference compound]”, the specific activity is reported as 3–4 μCi/μg.
